# Ab-14 light chain CDR variants: yeast mating affinities

Antigen: PDVDLGDISGINAS, a 14-residue peptide of the SARS-CoV-2 spike HR2 region.

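Phage display of a naive human antibody library on the peptide gave the parent. This is the validation round: designs drawn from the data on random variants, tested in the same kind of assay. Their group label is 14L_Ctrl (Ctrl: baseline library sampled from a position-specific scoring matrix, with some repeated check sequences). In AlphaSeq, yeast of one mating type display the scFv and yeast of the other type display the target. After mating in shaken culture at 30 °C for 16 h, diploids were selected and their barcode pairs sequenced. Scores were corrected for input abundance and mapped to Kd with protein pairs of known affinity run in the same pool. Each pool was mated in six replicate cultures.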

The variants keep the heavy chain, the linker and the frameworks of Ab-14 (scFv order VH, three GGGGS repeats, VL).
VH: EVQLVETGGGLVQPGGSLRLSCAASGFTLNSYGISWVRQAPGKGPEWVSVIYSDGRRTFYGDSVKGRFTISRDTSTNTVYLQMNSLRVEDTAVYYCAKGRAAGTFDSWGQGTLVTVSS
VL: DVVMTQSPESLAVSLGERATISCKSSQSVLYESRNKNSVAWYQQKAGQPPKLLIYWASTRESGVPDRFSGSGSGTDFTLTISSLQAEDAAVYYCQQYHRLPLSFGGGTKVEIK

Positions count from residue 1 of the parent VL; S33G puts G in place of S. The read-out is the apparent dissociation constant on a log10 scale (nM): the lower, the stronger. "ND" means that the variant was in the library but no mating with the target was seen in that replicate; the authors take this as a sign of poor binding, and no number exists. Background: pairings of all light chain designs with three empty control strains gave a value in 4% of cases (median 2.64, 5th percentile 1.59). Values in that range, when seen in few replicates, are hard to tell from nonspecific mating. For each scFv, signals with the empty controls are counted beside the result, with their mean in brackets. The range of this assay differs from that of the first round, and the authors advise against merging the two. The parent sequence was in this pool as ten entries: three were never detected, three once, and four in most replicates, with averages from 0.34 to 2.37. The authors averaged sequences with at least three values out of six and counted those with two or fewer as poor binders.

changes,log10 Kd (nM) by replicate,signal with controls
S33G/Y97T,ND 2.17 ND 3.37 1.22 2.27,1/18 (2.49)
S26K/L102F,ND 3.13 1.64 ND 2.47 ND,0/18
S25M/Q27P/V29E/K36C/W56Q/Y97C/P101E,ND ND 0.64 ND ND ND,0/18
Q27P/W56G/H98N,-0.12 -0.36 -0.40 -0.49 -0.46 -0.18,2/18 (2.84)
S26M/T59I/H98M,0.83 0.59 0.78 -0.01 1.90 0.33,0/18
Y31T/W56S,0.97 1.04 0.47 0.61 0.25 0.59,0/18
S58N/Q96H,ND ND ND ND ND ND,0/18
T59S,ND ND ND ND 2.26 3.14,0/18
S28T/Y31A/T59V/E61I/L100K,ND ND ND ND ND ND,0/18
S103F,1.91 ND ND 2.19 2.13 2.65,1/18 (2.22)
E32Q/S62Y,ND ND ND ND ND ND,0/18
E32T/W56H,1.91 0.91 0.79 1.59 1.24 1.33,0/18
Y31Q/V39F/W56G/Q96C,0.30 0.79 0.43 0.28 0.20 0.94,0/18
K24M/S62R/S103H,ND ND ND 1.87 2.26 ND,1/18 (1.80)
S26T/R34N/W56E/S103E,0.86 0.53 0.54 0.41 0.07 0.40,0/18
S25L/Y31T/W56D/Q96M,-0.34 0.15 -0.37 -0.38 -0.08 0.04,0/18
W56N/P101V,1.25 1.55 1.85 0.48 0.55 2.13,0/18
V29A/R34T/W56G/R99Y,0.80 0.78 0.59 0.89 0.77 1.08,2/18 (2.99)
Y97D,ND ND ND 2.04 ND ND,0/18
Q27N/N35Y/K36Y/W56E,0.67 0.80 0.46 0.54 0.51 0.71,0/18
E32T/K36Q/Q95Y,1.76 ND ND ND ND ND,0/18
S26H/E32V/K36T/S103D,ND ND ND ND ND ND,0/18
Q27K/S33E/R34N/K36N/S38A/S62W/L100Y/L102I,1.74 3.68 ND ND 2.96 1.74,1/18 (1.95)
S25L/Y97V/S103A,ND ND ND ND ND ND,0/18
R34E/N35D,1.59 2.99 1.52 2.32 2.97 2.02,0/18
L30W/Y31L/S33R,1.46 1.76 1.61 3.39 1.28 1.66,1/18 (1.72)
L30Y/R34F/K36T/T59Y/Q96R/L100D,ND ND ND ND ND ND,0/18
S25I/W56K/S62N,-0.07 -0.06 -0.03 -0.31 -0.04 -0.15,0/18
S25I/R34D/S62V/S103L,0.42 0.94 0.31 0.04 0.78 0.68,0/18
R34W/K36S/W56H,0.45 0.47 0.36 0.07 0.25 0.39,3/18 (3.50)
R34A/W56D/S62Y/Q95T/S103L,ND 2.00 0.77 ND 1.53 1.32,0/18
S25V/S62R/L100E,ND ND ND ND ND ND,0/18
S28R/W56K/H98R,ND ND ND ND ND ND,0/18
Q27I/R34G/S58T/H98W,ND 3.39 2.39 ND 3.64 ND,0/18
S25T/S26Y/S28Q/L30E/Y97V,ND ND ND ND ND ND,1/18 (1.43)
R60G/S103C,ND ND ND ND ND ND,0/18
K24D/S25V/S33G/W56Q/T59E/S103E,0.04 -0.11 0.19 -0.21 -0.18 -0.15,0/18
S38P/V39C,ND 1.91 ND ND ND ND,0/18
K24R/S25M/N35S/K36L/S38P/L100M,1.57 2.10 1.87 1.00 1.34 1.17,2/18 (2.32)
S26E/Q27L/S38Q/W56Q,0.71 0.53 0.64 1.19 0.76 1.16,2/18 (2.73)
K24Q/V29W/E32N,1.69 3.82 4.02 ND ND ND,0/18
Q27P/Y31S/R34S/W56G/E61R/Y97A,ND 3.07 1.61 ND ND ND,0/18
K24Q/Q27D/R34M/W56N,0.71 0.52 0.20 0.41 0.65 0.67,0/18

A selection of 3 entries from above:

changes,log10 Kd (nM) by replicate,signal with controls
S26T/R34N/W56E/S103E,0.86 0.53 0.54 0.41 0.07 0.40,0/18
Q27K/S33E/R34N/K36N/S38A/S62W/L100Y/L102I,1.74 3.68 ND ND 2.96 1.74,1/18 (1.95)
W56N/P101V,1.25 1.55 1.85 0.48 0.55 2.13,0/18

Reference: Li et al. 2023, doi:10.1038/s41467-023-39022-2. File: FLAb, binding data.